Compound activity as filed in PubChem.
This is one part of a sample in which hits are shown more often than they occur.
MBNL1 CUG block: qHTS Assay for Inhibitors of MBNL1-poly(CUG) RNA binding. Muscleblind-like protein 1 (Homo sapiens), Q9NR56. TR-FRET MBNL1-His/biotin-(CUG)12 binding, 665/545 ratio. Potency, µM (doses to about 57.5 µM), hits mostly inhibitors. 280,000 tested, 0.036% active. AID 2675, 2010; active means well fitted inhibition curve with a large enough effect in the signal ratio, with a control signal flat, not every such curve was filed as active; inconclusive means small, poorly fitted or top-dose-only effect, or effect the other way, or a change in a side signal; inactive means no such curve, though single readings can be large or run the other way; the % refers to the signal ratio
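Compound titration spanned 92 nM–58 uM against the MBNL1-His/biotin-(CUG)12 complex. After 60 min at room temperature with 5 nM streptavidin-XL665 and 0.055 ng/ul terbium anti-His, ratiometric 665/545 nm emission (Ex 340 nm) normalized to controls.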
Rango-impB inh: qHTS Assay for Inhibitors of Rango (Ran-regulated importin-beta cargo) - Importin beta complex formation | Rango CFP/YFP FRET sensor + importin beta, 45 min | Importin subunit beta-1 (Homo sapiens), Q14974 | AID 540263, 2011 | Potency, µM (top dose mostly 92.2 µM) | 340,000 tested, 0.031% active; further: nearly all actives have a fitted effect of over 15% in size
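Inhibition scored from the CFP 486 nm/YFP 530 nm FRET ratio 45 min after adding 0.125 microM importin beta to 50 nM Rango biosensor preincubated 5 min with compound (room temperature, PBS with DTT, Tween-20, BSA). No-importin wells as positive control.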
ClpP mod: qHTS Assay for Activators of ClpP. purified B. subtilis ClpP, FRET peptide cleavage, 20 min. Potency, µM (series often up to 57.5 µM). 340,000 tested, 1.9% active; active means well fitted falling curve with a large enough effect; inconclusive means small, poorly fitted or top-dose-only effect; inactive means no such curve, though single readings can be large or run the other way; further: the source files actives as falling curves though it sought activators and does not explain the sign; nearly all actives have a fitted effect of over 65% in size
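Buffer: 100 mM Tris/HCl pH8, 100 mM KCl, 0.05% low protease BSA, 2.5% glycerol, 0.01% Tween-20. ClpP 10 microg/mL final; 20 min RT; delta FRET normalized to ADEP and DMSO controls.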
Rango release inh: qHTS Assay for Inhibitors of RanGTP induced Rango (Ran-regulated importin-beta cargo) - Importin beta complex dissociation; Snurportin-1 (Homo sapiens) + GTP-binding nuclear protein Ran (Homo sapiens) + Importin …; Biochemical FRET Rango-importin beta, RanGTP-induced dissociation; Potency, µM (titrated, usually from 46.1 µM); 340,000 tested, 0.071% active; further: nearly all actives have a fitted effect of over 45% in size
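Compounds sat 5 min at room temperature with 0.1 uM Rango biosensor plus 0.25 uM importin beta, then FRET pre-read. RanGTP-RCC1 (0.6 uM Ran, 2mM GTP, 0.2 uM RCC1) added for 45 min, and the CFP/YFP post-read measured blocked complex dissociation.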
CBFb-RUNX1 inh: qHTS Assay for Compounds Blocking the Interaction Between CBF-beta and RUNX1 for the Treatment of Acute Myeloid Leukemia. Potency, µM (top dose mostly 59.8 µM), hits mostly inhibitors. AlphaScreen CBFb-His/RUNX1-biotin binding, biochemical. Runt-related transcription factor 1 (Homo sapiens) + Core-binding factor subunit beta …. 230,000 tested, under 10 active; active means well fitted curve in the direction sought with a large enough effect; inconclusive means small, poorly fitted or top-dose-only effect, or effect the other way, or another doubt; inactive means no such curve, though single readings can be large or run the other way
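Proteins preincubated together for 20 min at RT before compound addition; 15 min later, nickel and streptavidin beads were added and left 90 min prior to AlphaScreen measurement.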
A number is an active result; – = inactive; ? = inconclusive; · = no result; [ ] = remark or other dose. Unless noted, the call rests on the fitted dose curve.

The chains behind the UniProt entries cited, without tags or fusion partners.
Importin subunit beta-1 (Homo sapiens), Q14974, UniProt Q14974, whole entry, looked up: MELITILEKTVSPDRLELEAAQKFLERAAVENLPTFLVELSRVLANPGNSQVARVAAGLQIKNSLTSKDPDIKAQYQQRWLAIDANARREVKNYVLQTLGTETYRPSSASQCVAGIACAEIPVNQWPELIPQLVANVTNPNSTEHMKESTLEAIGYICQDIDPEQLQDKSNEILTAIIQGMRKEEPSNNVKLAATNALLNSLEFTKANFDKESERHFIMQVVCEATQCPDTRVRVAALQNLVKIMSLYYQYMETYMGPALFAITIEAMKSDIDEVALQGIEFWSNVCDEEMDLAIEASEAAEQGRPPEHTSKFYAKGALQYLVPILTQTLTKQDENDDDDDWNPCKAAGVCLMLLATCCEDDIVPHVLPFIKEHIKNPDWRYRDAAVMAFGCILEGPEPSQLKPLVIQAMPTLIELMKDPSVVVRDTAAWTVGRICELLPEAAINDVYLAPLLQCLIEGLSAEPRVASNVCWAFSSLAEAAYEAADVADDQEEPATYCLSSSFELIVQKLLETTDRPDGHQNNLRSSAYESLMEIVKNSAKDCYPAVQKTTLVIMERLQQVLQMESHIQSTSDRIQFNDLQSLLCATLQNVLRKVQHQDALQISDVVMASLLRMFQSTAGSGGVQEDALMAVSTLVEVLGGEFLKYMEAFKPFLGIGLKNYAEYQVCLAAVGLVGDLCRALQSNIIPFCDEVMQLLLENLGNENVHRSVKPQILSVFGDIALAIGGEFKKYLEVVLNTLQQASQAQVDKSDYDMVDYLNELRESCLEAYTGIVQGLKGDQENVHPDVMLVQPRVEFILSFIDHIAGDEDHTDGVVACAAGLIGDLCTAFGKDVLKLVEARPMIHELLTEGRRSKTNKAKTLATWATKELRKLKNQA

SMILES | MBNL1 CUG block | Rango-impB inh | ClpP mod | Rango release inh | CBFb-RUNX1 inh
CCC1(C)Cc2ccccc2C(Nc2c(C)n(C)n(-c3ccccc3)c2=O)=N1 (stereo unspecified) | – | – | 14µM | – | –
CCN(CC)C(=O)Cn1cc(C(=O)C(=O)N2CC=C(c3ccccc3)CC2)c2ccccc21 | – | 37µM | ? | – | –
CCN(CC)C(=O)Cn1cc(C(=O)C(=O)N2CCN(C)CC2)c2ccccc21 | – | – | – | – | ·
O=C(C[n+]1ccc2ccccc2c1)c1ccc(F)cc1 | · | · | – | · | ·
Cc1cc(C)n2c(Nc3c(C)cccc3C)c(-c3ccsc3)nc2n1 | · | · | – | · | ·
Cc1cccc(C)c1Nc1c(-c2ccsc2)nc2cccc(C)n12 | · | · | 35µM | · | ·
Cc1cccc(-c2nc(SCCCOc3ccccc3Cl)n3[nH]c(=O)cc3n2)c1 | · | · | – | · | ·
CN(C)CCNC(C(=O)Nc1cc(Cl)cc(Cl)c1)c1ccccc1 (stereo unspecified) | – | – | · | – | –
CC(C)NC(C(=O)Nc1cc(Cl)cc(Cl)c1)c1ccccc1 (stereo unspecified) | – | – | 28µM | – | –
O=C(Nc1cccc(C(F)(F)F)c1)C1CCN(S(=O)(=O)c2cccc3nsnc23)CC1 | · | · | – | · | ·
CCCn1c(CCC(=O)O)ccc1-c1ccc(OC)cc1 | – | ? | 28µM | ? | –
C=CCn1c(CCC(=O)O)ccc1-c1ccccc1 | – | – | 28µM | – | –
COc1ccc(-c2ccc(CCC(=O)O)n2NC(N)=O)cc1 | – | – | – | ? | –
COc1ccc(-n2nc(C(=O)NCCc3cccc(C)c3)c3c4ccccc4n(C)c3c2=O)cc1Cl | · | · | – | · | ·
COc1ccc(C(=O)NCC(c2cccs2)S(=O)(=O)c2cccs2)cc1 (stereo unspecified) | · | · | – | · | ·
Cc1oc(-c2ccc(Cl)cc2)nc1CSCC(=O)NCc1ccccc1Cl | · | · | 32µM | · | ·
Cc1ccc(-c2nc(CSCC(=O)NCCCN3CCOCC3)c(C)o2)cc1 | – | – | – | – | –
CSc1ccc(-c2nc(CSCC(=O)NCCCN3CCOCC3)c(C)o2)cc1 | – | – | 35µM | – | –
Cc1oc(-c2cccc(Cl)c2)nc1CSCC(=O)NCc1ccccc1Cl | · | · | – | · | ·
O=C(Nc1ccc(NC(=O)c2cccs2)cc1)c1ccc(Br)cc1 | · | · | – | · | ·
Cc1nnc(N2C(=O)c3cccc4cccc(c34)C2=O)s1 | ? | – | 28µM | – | –
CC(C)CCOc1ccc(N)cc1 | · | · | · | · | –
COC(=O)c1ccc(-c2ccco2)n1Cc1ccccc1Cl | – | – | 28µM | – | –
COC(=O)c1cc2oc(C)cc2n1Cc1ccccc1Cl | · | · | – | · | ·
Cn1cccc1C(=O)NC(=O)COC(=O)CC12CC3CC(CC(Br)(C3)C1)C2 | – | – | 28µM | – | –
SMILES | MBNL1 CUG block | Rango-impB inh | ClpP mod | Rango release inh | CBFb-RUNX1 inh
COc1cc2[nH]c(=O)n(CCCCCC(=O)N3CCN(c4cccc(C(F)(F)F)c4)CC3)c(=O)c2cc1OC | · | · | – | · | ·
COc1cc2[nH]c(=O)n(CCCCCC(=O)N3CC=C(c4ccccc4)CC3)c(=O)c2cc1OC | – | – | 18µM | – | –
COc1cc2[nH]c(=O)n(CCC(=O)N3CCc4ccccc4C3)c(=O)c2cc1OC | – | – | 28µM | – | –
O=C1CC(c2ccccc2O)Oc2ccc(O)cc21 (stereo unspecified) | · | · | · | · | –
C=CCn1c(C)cc(C(=O)COc2ccc(C)nc2[N+](=O)[O-])c1C | · | – | 4µM | – | –
CCCn1c(C)cc(C(=O)COc2ccc(C)nc2[N+](=O)[O-])c1C | ? | – | – | – | –
Cc1c(C(=O)Nc2c(F)cccc2F)sc2ncn(Cc3ccccc3F)c(=O)c12 | · | · | – | · | ·
COC(=O)C1=C(C)NC(C)=C(C(=O)OC)C1c1cn(-c2ccccc2)nc1-c1ccco1 | – | – | 28µM | – | –
COc1cccc(C=Nc2ccccc2C(=O)Nc2nccs2)c1OC | – | ? | 32µM | ? | –
O=C(Nc1nccs1)c1ccccc1N=Cc1ccccc1 | – | ? | 28µM | ? | –
O=C(Nc1ccccc1)c1ccccc1N=Cc1ccccc1O | –[11.5 µM] | – | 35µM | – | –
Cc1cc2n(n1)CCCN2C(=O)Nc1ccccc1F | · | · | – | · | ·
O=C(COc1ccc([N+](=O)[O-])cc1)N(Cc1ccccc1)Cc1ccccc1 | – | – | 32µM | – | –
O=C(COc1ccccc1)NNC(=O)COc1ccc([N+](=O)[O-])cc1 | – | – | · | – | –
COCCCNc1oc(COc2ccc(Cl)cc2Cl)nc1C#N | – | ? | – | ? | –
CN(C)CCNc1oc(COc2ccc(Cl)cc2Cl)nc1C#N | – | ? | – | 16µM | –
O=C1c2ccccc2NC2CCCCCN12 (stereo unspecified) | – | – | 13µM | – | –
CC(C)N1CCc2c(sc(N)c2C#N)C1 | – | ? | 25µM | ? | –
CCN1CCc2c(sc(N)c2C#N)C1 | – | ? | 28µM | ? | –
CCCN1CCc2c(sc(NC(=S)NC(=O)c3ccccc3)c2C#N)C1 | ? | ? | – | ? | –
CCCc1nn2c(=O)cc(COC(=O)c3ccccc3NC(=O)c3cccs3)nc2s1 | · | · | – | · | ·
Cc1ccc(S(=O)(=O)NC(CC(=O)NC2CCCC2)c2ccco2)cc1 (stereo unspecified) | – | – | 28µM | – | –
CCOC(=O)N1CCC(NC(=O)CC(NS(=O)(=O)c2ccc(Cl)cc2)c2ccco2)CC1 (stereo unspecified) | – | – | 32µM | – | –
COc1ccc(S(=O)(=O)NC(CC(=O)NC2CCCC2)c2ccco2)cc1 (stereo unspecified) | – | – | – | – | –
CCc1ccc(NC(=O)c2sc3nc(C)c(Cl)c(C)c3c2NC(=O)c2ccccc2)cc1 | · | · | – | · | ·
SMILES | MBNL1 CUG block | Rango-impB inh | ClpP mod | Rango release inh | CBFb-RUNX1 inh
Cc1cc(C)c2cc(C#N)c(N3CCCN(C(=S)NCCCN(C)C)CC3)nc2c1 | – | ? | · | ? | ·
Cc1ccc(S(=O)(=O)N2CCCN(c3nc4cc(C)ccc4cc3C#N)CC2)cc1 | – | ? | ? | ? | ?
Cc1cc(C)c2cc(C#N)c(N3CCCC3)nc2c1 | – | ? | 25µM | ? | –
Cc1cc2cc(C#N)c(N3CCN(S(C)(=O)=O)CC3)nc2cc1C | ? | ? | 20µM | ? | –
Nc1cc(-c2ccccc2)ccc1O | – | – | 32µM | – | –
COc1ccc(NC(=O)N2CCN(C(=O)C(Cc3ccc(F)cc3)NC(C)=O)CC2)cc1 (stereo unspecified) | – | – | 32µM | – | –
Cc1cccc(C)c1NC(=O)COC(=O)c1ccc2[nH]c3c(c2c1)CCCC3 | – | ? | ? | 23µM | –
